Molecules are shown by their SMILES.

Data set [1] concerns A2780Tax ovarian carcinoma xenograft (mutated tubulin). In words: In vivo antitumor testing, A2780Tax xenograft. More on the design: species or system nude mice. The note with it: BMS-310705; IV, q4dx3; Expt. 13.
The next data set relates to Pat-21 breast carcinoma. In words: In vivo antitumor testing, Pat-21 xenograft. More on the design: species or system nude mice. The note with it: BMS-310705; IV, q4dx3;37,66; Expt. 717.
Another data set relates to HCT116/VM46 cells. The data set can be described thus: Cytotoxicity assay, multi-drug resistant colon tumor line. Type of data set: cell-based, human. The note with it: resistant cell line vs. sensitive HCT 116 cell line.
For data set [2], the system named is five human tumor xenografts resistant to paclitaxel. The data set can be described thus: Antitumor activity in panel of five paclitaxel-resistant human tumor xenografts. The note with it: parenteral administration, five tumor models. For orientation: Xenograft models place foreign cells or tissue in a host animal.

Take `C/C(=C\c1csc(CN)n1)[C@@H]1C[C@@H]2O[C@]2(C)CCC[C@H](C)[C@H](O)[C@@H](C)C(=O)C(C)(C)[C@@H](O)CC(=O)O1` (relative stereo) [BMS-310705, [1S-[1R*,3R*(E),7R*,10S*,11R*,12R*,16S*]]-7,11-dihydroxy-8,8,10,12,16-pentamethyl-3-[1-methyl-2-(2-aminomethyl-4-thiazolyl)ethenyl]-4,17-dioxabicyclo[14.1.0]heptadecane-5,9-dione]: the “OD (optimal dose or maximum tolerated dose)” value in data set [1] is given as 10 mg/kg; with Pat-21 breast carcinoma, 9 mg/kg. Also, in the data set with HCT116/VM46 cells, the “ratio of concentration (R/S or resistance ratio) to inhibit cell growth by 50%” value worked out at 12.8 fold. Besides, the figures for the “antitumor activity in paclitaxel-resistant tumors (in words)” value in data set [2] (listed as subject compound) and in data set [2] (listed as test compound) were “significantly more active than paclitaxel” and “clearly demonstrated antitumor activity in all five paclitaxel-resistant tumors”, respectively.

These data come from patent US6727276B2, “Epothilone derivatives for the treatment of refractory tumors” (Bristol-Myers Squibb Company, priority 2001, dated 2004).
